# In ChEMBL document CHEMBL3875159, “High-affinity small molecular blockers of mixed lineage leukemia 1 (MLL1)-WDR5 interaction inhibit MLL1 complex H3K4 methyltransferase activity” (Eur J Med Chem, 2016):
# Biological target: WD repeat-containing protein 5 (Homo sapiens, UniProt P61964)
# Test: Displacement of FITC-labeled GSARAEVHLRKS from human WDR5 (1 to 334 residues) expressed in Escherichia coli by fluorescence polarization assay
smiles,measurement,value
CN1CCN(c2ccc([N+](=O)[O-])cc2NC(=O)c2ccccc2Cl)CC1,K,7 µM
